Protein sequences, listed by entry. Tags and fused reporters are not part of them.
UniProt Q15788, whole entry: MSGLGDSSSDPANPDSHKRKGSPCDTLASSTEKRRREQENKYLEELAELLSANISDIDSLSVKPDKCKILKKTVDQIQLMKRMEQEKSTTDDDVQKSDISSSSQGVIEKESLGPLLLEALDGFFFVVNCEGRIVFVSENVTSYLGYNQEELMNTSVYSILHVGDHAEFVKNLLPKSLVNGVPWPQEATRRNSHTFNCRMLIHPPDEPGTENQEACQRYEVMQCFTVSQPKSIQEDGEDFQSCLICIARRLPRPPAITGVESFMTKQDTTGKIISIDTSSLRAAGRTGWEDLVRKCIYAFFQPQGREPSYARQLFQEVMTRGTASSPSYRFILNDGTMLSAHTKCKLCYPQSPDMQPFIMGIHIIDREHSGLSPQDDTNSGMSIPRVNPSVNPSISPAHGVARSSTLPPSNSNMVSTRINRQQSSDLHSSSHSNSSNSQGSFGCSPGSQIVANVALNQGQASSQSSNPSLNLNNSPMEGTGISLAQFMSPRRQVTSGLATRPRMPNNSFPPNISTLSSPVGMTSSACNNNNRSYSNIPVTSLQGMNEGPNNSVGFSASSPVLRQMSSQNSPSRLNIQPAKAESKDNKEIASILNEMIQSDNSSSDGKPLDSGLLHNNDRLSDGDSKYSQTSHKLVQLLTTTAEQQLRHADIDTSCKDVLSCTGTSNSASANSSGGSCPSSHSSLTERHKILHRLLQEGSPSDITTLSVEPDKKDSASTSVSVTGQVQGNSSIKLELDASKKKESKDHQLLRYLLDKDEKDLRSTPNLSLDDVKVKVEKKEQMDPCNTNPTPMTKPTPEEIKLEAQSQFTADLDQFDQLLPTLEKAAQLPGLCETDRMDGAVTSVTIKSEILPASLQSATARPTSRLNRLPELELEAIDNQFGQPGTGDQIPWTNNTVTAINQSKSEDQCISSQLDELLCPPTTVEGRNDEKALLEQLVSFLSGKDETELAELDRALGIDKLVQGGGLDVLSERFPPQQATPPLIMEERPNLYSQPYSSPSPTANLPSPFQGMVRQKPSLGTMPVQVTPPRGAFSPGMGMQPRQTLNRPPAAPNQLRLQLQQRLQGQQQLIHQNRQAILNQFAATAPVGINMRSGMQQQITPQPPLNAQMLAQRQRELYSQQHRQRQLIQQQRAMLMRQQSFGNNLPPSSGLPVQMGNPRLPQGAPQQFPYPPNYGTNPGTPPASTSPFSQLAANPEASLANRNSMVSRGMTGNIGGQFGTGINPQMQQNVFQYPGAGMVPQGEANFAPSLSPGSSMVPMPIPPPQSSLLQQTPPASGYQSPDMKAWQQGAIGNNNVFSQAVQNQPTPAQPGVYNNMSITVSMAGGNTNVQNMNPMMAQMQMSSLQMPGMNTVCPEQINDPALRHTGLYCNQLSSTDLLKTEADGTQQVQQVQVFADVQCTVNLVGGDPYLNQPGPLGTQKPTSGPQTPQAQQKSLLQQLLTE

This is a selection; strong and weak results do not stand in their true shares. The source made the active and inactive calls.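 Rule for the calls: active = inhibition above the campaign mean plus 3 SD, with each screening campaign given its own cutoff (cut at about 60% in these data); inactive = the rest.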
The molecules below were run against Nuclear receptor coactivator 1 (Homo sapiens) (UniProt Q15788) (assay: NCOA1 GAL4-fusion reporter inhibition – cell-based, luminescence, primary screen (AID 588354;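 note: 0% = DMSO treated cells and 100% = gossypol at 36 µM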)). Conditions: HEK293 GAL4-SRC1 luciferase reporter, at 3.6 µM, stronger effect = higher value.
`CCOC(=O)C(CC)C1=NC(C)(C)Cc2ccccc21.O=[N+]([O-])c1cc([N+](=O)[O-])c(O)c([N+](=O)[O-])c1` (stereo not given) was tested, and the inhibition was inactive: -0.78%.
With `CC1=C2N=C(C=C3N=C(C(C)=C4[N-][C@@](C)([C@@H]5N=C1[C@](C)(CCC(=O)NC[C@@H](C)OP(=O)([O-])O[C@H]1[C@@H](O)[C@@H](n6cnc7cc(C)c(C)cc76)O[C@@H]1CO)[C@H]5CC(N)=O)[C@@](C)(CC(N)=O)[C@@H]4CCC(N)=O)[C@@](C)(CC(N)=O)[C@@H]3CCC(N)=O)C(C)(C)[C@@H]2CCC(N)=O.[C-]#N.[Co+3]` the inhibition was inactive: 3.71%.
With `O=[N+]([O-])c1cc([N+](=O)[O-])c(Nc2nnnn2CCO)c([N+](=O)[O-])c1` the inhibition was inactive: -5.38%.
`CCCOc1ccc(NP(C)(=O)Oc2ccc(Cl)cc2)cc1` (stereo not given) was tested, and the inhibition was inactive: -18.2%.
`CP(=O)(Nc1ccc(SC(F)(F)F)cc1)Oc1ccccc1` (stereo not given) was tested, and the inhibition was inactive: 7.61%.
With `COc1ccccc1OP(C)(=O)Nc1c(C)cccc1C` (stereo not given) the inhibition was inactive: 0.56%.
`CN1CCCCC1COC(=O)C1(O)c2ccccc2CCc2ccccc21` (stereo not given) was tested, and the inhibition was inactive: 11.9%.
With `CN(Cc1cccnc1)C(=O)COc1ccc(Cl)c(Cl)c1.O=[N+]([O-])c1cc([N+](=O)[O-])c(O)c([N+](=O)[O-])c1` the inhibition was inactive: 11.4%.
In the case of `O=[N+]([O-])c1cc([N+](=O)[O-])c(-n2nnc3ccccc32)c([N+](=O)[O-])c1`, the inhibition is reported as inactive: -3.24%.
`Cc1nc2ccc3ccccc3c2s1.O=[N+]([O-])c1cc([N+](=O)[O-])c(O)c([N+](=O)[O-])c1` was tested, and the inhibition was inactive: 3.02%.
For `O=[N+]([O-])c1cc([N+](=O)[O-])c(-c2cnn(-c3ccccc3)c2)c([N+](=O)[O-])c1`, the inhibition was inactive: -5.65%.
For `Cc1cc(C)cc(OP(C)(=O)Nc2ccc(C)cc2C)c1` (stereo not given), the inhibition was inactive: -3.94%.
`CCOC(=O)c1ccc(NP(C)(=O)Oc2cc(C)cc(C)c2)cc1` (stereo not given) was tested, and the inhibition was inactive: -19.1%.
In the case of `COc1ccccc1OP(C)(=O)Nc1cccc(Br)c1` (stereo not given), the inhibition is reported as inactive: 1.03%.
In the case of `Cc1cc(C)cc(OP(C)(=O)Nc2ccccn2)c1` (stereo not given), the inhibition is reported as inactive: -3.71%.
For `Cc1ccc(C)c(NP(C)(=O)Oc2ccccc2)c1` (stereo not given), the inhibition was inactive: -15.7%.
For `O=C(O)c1cccc(Nc2c([N+](=O)[O-])cc([N+](=O)[O-])cc2[N+](=O)[O-])c1`, the inhibition was inactive: 0.89%.
For `CC1=NCCc2c1[nH]c1ccccc21.O=[N+]([O-])c1cc([N+](=O)[O-])c(O)c([N+](=O)[O-])c1`, the inhibition was inactive: -11.4%.
`Cc1cccc(C)c1OP(C)(N)=O` (stereo not given) was tested, and the inhibition was inactive: -3.22%.
With `CC(C)(C)c1ccc(OP(C)(=O)Nc2ccc(SC(F)(F)F)cc2)cc1` (stereo not given) the inhibition was inactive: 2.6%.
With `O=[N+]([O-])c1ccc2c(c1)C=Nc1ccccc1O2` the inhibition was inactive: 2.88%.
With `O=[N+]([O-])c1cc([N+](=O)[O-])c(Nc2cccnc2)c([N+](=O)[O-])c1` the inhibition was inactive: -7.26%.
In the case of `COc1ccc(OP(C)(=O)Nc2cccc(F)c2)cc1` (stereo not given), the inhibition is reported as inactive: 3.28%.
In the case of `COc1ccccc1OP(C)(=O)Nc1cc(Cl)ccc1C` (stereo not given), the inhibition is reported as inactive: 4.78%.
`Cc1cc(C)cc(OP(C)(N)=O)c1` (stereo not given) was tested, and the inhibition was inactive: -7.43%.
In the case of `CCOC(=O)c1ccc(NP(C)(=O)Oc2ccccc2)cc1` (stereo not given), the inhibition is reported as inactive: -13.2%.
In the case of `Cc1ccc(NP(C)(=O)Oc2ccccc2)c(C)c1` (stereo not given), the inhibition is reported as inactive: -33.2%.
In the case of `COc1ccccc1OP(C)(=O)Nc1ccc(C)cc1` (stereo not given), the inhibition is reported as inactive: 1.39%.
In the case of `CCN(CC)CCCOC(=O)C(O)(c1ccccc1)c1ccccc1`, the inhibition is reported as inactive: 7.9%.
For `Cc1cc(C)cc(OP(C)(=O)Nc2ccc(SC(F)(F)F)cc2)c1` (stereo not given), the inhibition was inactive: 10.5%.
For `CP(=O)(NC(=O)Nc1ccccc1)Oc1ccccc1` (stereo not given), the inhibition was inactive: 6.55%.
`CCc1ccc(OP(C)(=O)N2CCN(c3ccc([N+](=O)[O-])cc3)CC2)cc1` (stereo not given) was tested, and the inhibition was inactive: 3.83%.
`CP(=O)(Oc1ccccc1)OC(c1ccccc1)C(F)(F)F` (stereo not given) was tested, and the inhibition was inactive: -8.58%.
For `Cc1cccc(C)c1OP(C)(=O)Nc1ccc(SC(F)(F)F)cc1` (stereo not given), the inhibition was inactive: -13.3%.
`Cc1ccc(Nc2c([N+](=O)[O-])cc([N+](=O)[O-])cc2[N+](=O)[O-])cc1` was tested, and the inhibition was inactive: -4.18%.
`CP(=O)(Nc1ccc(SC(F)(F)F)cc1)Oc1ccc(Cl)cc1` (stereo not given) was tested, and the inhibition was inactive: -2.04%.
For `CP(=O)(Nc1ccccn1)Oc1ccc(Cl)cc1` (stereo not given), the inhibition was inactive: 5.13%.
For `CCOP(C)(=S)SCC(=O)NC(C)C(=O)O` (stereo not given), the inhibition was inactive: -13.7%.
`CCOC(=O)c1ccc(NP(C)(=O)Oc2ccc(OC)cc2)cc1` (stereo not given) was tested, and the inhibition was inactive: 7.81%.
With `O=[N+]([O-])c1cc([N+](=O)[O-])c(O)c([N+](=O)[O-])c1.c1ccc(Oc2ccncc2)cc1` the inhibition was inactive: -3.86%.
`COc1ccccc1OP(C)(=O)Nc1ccccc1` (stereo not given) was tested, and the inhibition was inactive: 8.13%.
With `CP(=O)(Nc1ccccc1Br)Oc1ccccc1` (stereo not given) the inhibition was inactive: -7.98%.
For `CP(=S)(Nn1cnnc1)Oc1ccccc1` (stereo not given), the inhibition was inactive: -13.3%.
For `CP(=O)(OC12CC3CC(CC(C3)C1)C2)OC12CC3CC(CC(C3)C1)C2`, the inhibition was inactive: 0.24%.
For `CCOC(=O)c1ccc(NP(C)(=O)Oc2ccc(Cl)cc2)cc1` (stereo not given), the inhibition was inactive: -18.1%.
With `CCc1ccc(OP(C)(=O)Nc2cccnc2)cc1` (stereo not given) the inhibition was inactive: -41.6%.
In the case of `CP(=O)(Oc1ccccc1)N1CCOC1=O` (stereo not given), the inhibition is reported as inactive: -4.3%.
In the case of `O=C(OCCCN1CCCC1)C(O)(c1ccccc1)C1CCCCC1` (stereo not given), the inhibition is reported as inactive: 2.69%.
For `COc1ccccc1OP(C)(=O)Nc1c(C)n(C)n(-c2ccccc2)c1=O` (stereo not given), the inhibition was inactive: -4.83%.
For `COc1ccc(OP(C)(=O)Nc2ccc(Br)cc2)cc1` (stereo not given), the inhibition was inactive: -10.8%.
For `CCN(CC)CC(O)COC(=O)C(O)(c1ccccc1)C1CCCCC1` (stereo not given), the inhibition was inactive: 3.77%.
With `CN(C)C(=O)c1c([N+](=O)[O-])cc([N+](=O)[O-])cc1[N+](=O)[O-]` the inhibition was inactive: -5.76%.
With `CP(=O)(Nc1ccc(Cl)cc1)Oc1ccc(F)cc1` (stereo not given) the inhibition was inactive: -11.2%.
With `COc1ccccc1OP(C)(=O)Nc1ccccc1Br` (stereo not given) the inhibition was inactive: -20.1%.
`CC(C)(C)c1ccc(OP(C)(=O)O)cc1` was tested, and the inhibition was inactive: 5.99%.

— PubChem BioAssay AID588354 (The Scripps Research Institute Molecular Screening Center, 2011)
